Values quoted from earlier work, collected in patent publication US20020037864A1, “2'-Propionate clarithromycin dodecyl sulfate and its preparation and pharmaceutical composition containing the same” (priority 2000, published 2002).

Tested on: mice
Details: orally administrated to mice; cited from earlier work

In the case of “2′-propionate erythromycin dodecyl sulfate [etothromycin]”, the LD50 is listed as “above 6.45 g/kg”.
